Test results from patent US9663525B2, “Pyrazolopyrimidinyl inhibitors of ubiquitin-activating enzyme” (Millennium Pharmaceuticals, Inc., priority 2012, dated 2017).

Protein sequences, listed by entry. Tags and fused reporters are not part of them. Lines headed by an entry give the natural chain unless they say otherwise; changes in a name come on top.
UniProt P22314: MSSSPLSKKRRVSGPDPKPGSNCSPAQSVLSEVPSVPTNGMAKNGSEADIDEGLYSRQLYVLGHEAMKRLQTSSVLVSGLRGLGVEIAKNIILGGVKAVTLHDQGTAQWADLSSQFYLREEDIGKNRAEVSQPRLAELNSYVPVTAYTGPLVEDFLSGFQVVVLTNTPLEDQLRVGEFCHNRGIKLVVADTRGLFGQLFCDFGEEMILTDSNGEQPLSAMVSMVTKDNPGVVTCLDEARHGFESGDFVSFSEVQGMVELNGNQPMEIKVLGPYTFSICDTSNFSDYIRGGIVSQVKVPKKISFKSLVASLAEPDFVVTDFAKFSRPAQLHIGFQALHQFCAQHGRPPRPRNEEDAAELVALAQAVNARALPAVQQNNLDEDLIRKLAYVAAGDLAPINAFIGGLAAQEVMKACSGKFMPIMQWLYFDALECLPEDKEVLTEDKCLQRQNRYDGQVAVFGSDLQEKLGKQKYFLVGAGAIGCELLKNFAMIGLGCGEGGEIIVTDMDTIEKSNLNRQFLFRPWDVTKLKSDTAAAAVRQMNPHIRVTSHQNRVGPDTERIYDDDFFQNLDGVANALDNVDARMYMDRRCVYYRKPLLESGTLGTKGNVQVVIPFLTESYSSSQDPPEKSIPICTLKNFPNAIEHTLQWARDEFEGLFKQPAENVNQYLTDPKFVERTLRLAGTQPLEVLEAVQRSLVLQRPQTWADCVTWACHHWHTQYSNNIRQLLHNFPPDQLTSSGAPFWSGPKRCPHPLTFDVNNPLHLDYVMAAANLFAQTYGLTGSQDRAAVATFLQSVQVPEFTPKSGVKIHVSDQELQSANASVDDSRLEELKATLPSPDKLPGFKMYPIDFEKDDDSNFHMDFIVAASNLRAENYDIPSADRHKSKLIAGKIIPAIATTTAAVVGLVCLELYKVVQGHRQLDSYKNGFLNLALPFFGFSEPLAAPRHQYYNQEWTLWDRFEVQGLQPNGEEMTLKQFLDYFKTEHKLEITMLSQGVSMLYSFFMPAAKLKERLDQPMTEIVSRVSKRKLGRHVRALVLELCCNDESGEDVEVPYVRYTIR

Target: recombinant human UAE (Homo sapiens (Human), UniProt P22314)
Assay: Ubiquitin Activating Enzyme (UAE) HTRF assay, human UAE
Details: 0.111 μM compound

| % inhibition @0.111 μM [%] | Compound |
| --- | --- |
| 100 | NS(=O)(=O)OC[C@H]1C[C@@H](Nc2ccnc3cc(-c4cccc5c(F)cccc45)nn23)[C@H](O)[C@@H]1O [Compound I-105, (s.e.)-((1R,2R,3S,4R)-4-(2-(5-fluoronaphthalen-1-yl)pyrazolo[1,5-a]pyrimidin-7-ylamino)-2,3-dihydroxycyclopentyl)methyl sulfamate] |
| 100 | NS(=O)(=O)OC[C@H]1C[C@@H](Nc2ccnc3cc(-c4cccc5c(F)cccc45)nn23)[C@H](O)[C@@H]1O (relative stereo) [Compound I-097, (rac)-((1R,2R,3S,4R)-4-(2-(5-fluoronaphthalen-1-yl)pyrazolo[1,5-a]pyrimidin-7-ylamino)-2,3-dihydroxycyclopentyl)methyl rel-sulfamate] |
